From patent US10188770B2, “Dental implant having enhanced early stability and method for manufacturing same” (OSSTEMIMPLANT CO., LTD., priority 2014, dated 2019)

Tested on: implant-bone interface
Experiment: Removal torque of coated implants just after coating and after 3-year storage
Format: in vivo
Conditions: implant coated with 1 μg rhBMP-2 only
Protocol: In order to confirm the long-time storage stabilities of implant, osseointegration at implant-bone interface were measured via removal torque.
Each dental implant was coated with various bisphosphonates as described example 1 and its removal torque was measured just after coating step and 3-year self-storage, respectively.
Similarly, osseointegration at implant-bone interface were measured via removal torque for dental implants wherein the osteoclast activity inhibitor coating film further comprises a bone growth factor (BMP-2) as shown in Table 2.

B1: rhBMP-2 (protein, UniProt P12643 283-396, looked up)
Bone morphogenetic protein 2: QAKHKQRKRLKSSCKRHPLYVDFSDVGWNDWIVAPPGYHAFYCHGECPFPLADHLNSTNHAIVQTLVNSVNSKIPKACCVPTELSAISMLYLDENEKVVLKNYQDMVVEGCGCR
notes: bone growth factor, an osteogenic protein, coated on the implant
Q: How did the Removal torque (storage period 0 year) turn out when B1 was run?
A: 108.2 ± 10.6

Q: And the Removal torque (storage period 3 year)?
A: 104.9 ± 11.4
